From ChEMBL document CHEMBL6182939, “Searching for Synthetic Opioid Rescue Agents. 2: Identification of an Ultra-Potent Synthetic Opioid Rescue Agent” (J Med Chem, 2025)

The chains behind the UniProt entries cited, without tags or fusion partners.
UniProt P33261, whole entry: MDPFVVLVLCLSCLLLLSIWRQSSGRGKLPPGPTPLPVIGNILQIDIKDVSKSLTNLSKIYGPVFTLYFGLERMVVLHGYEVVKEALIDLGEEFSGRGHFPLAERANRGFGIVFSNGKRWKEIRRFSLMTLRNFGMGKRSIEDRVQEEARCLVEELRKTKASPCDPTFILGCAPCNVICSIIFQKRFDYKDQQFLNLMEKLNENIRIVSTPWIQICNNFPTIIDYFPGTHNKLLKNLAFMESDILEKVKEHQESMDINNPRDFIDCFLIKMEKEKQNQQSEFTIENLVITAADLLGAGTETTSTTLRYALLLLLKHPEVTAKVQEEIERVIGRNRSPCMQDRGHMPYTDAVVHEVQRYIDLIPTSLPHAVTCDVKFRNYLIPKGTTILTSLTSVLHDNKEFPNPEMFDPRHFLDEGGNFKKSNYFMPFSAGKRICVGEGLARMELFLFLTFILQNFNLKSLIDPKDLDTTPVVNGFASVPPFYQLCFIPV
UniProt P05177, whole entry: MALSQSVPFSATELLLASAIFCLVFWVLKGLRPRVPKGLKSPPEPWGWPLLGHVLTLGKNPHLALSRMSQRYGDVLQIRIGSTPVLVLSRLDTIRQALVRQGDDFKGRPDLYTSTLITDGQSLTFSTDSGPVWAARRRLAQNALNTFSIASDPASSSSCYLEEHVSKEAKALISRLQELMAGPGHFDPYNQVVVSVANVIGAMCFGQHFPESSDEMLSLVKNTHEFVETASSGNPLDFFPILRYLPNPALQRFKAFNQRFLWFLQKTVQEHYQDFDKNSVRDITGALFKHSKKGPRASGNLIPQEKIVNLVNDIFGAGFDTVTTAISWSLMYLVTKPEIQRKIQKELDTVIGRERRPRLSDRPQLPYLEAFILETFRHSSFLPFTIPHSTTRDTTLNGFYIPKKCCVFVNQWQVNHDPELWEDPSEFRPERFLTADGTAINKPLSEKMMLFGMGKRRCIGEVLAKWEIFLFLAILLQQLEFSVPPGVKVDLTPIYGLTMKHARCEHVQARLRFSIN
UniProt P08684, whole entry: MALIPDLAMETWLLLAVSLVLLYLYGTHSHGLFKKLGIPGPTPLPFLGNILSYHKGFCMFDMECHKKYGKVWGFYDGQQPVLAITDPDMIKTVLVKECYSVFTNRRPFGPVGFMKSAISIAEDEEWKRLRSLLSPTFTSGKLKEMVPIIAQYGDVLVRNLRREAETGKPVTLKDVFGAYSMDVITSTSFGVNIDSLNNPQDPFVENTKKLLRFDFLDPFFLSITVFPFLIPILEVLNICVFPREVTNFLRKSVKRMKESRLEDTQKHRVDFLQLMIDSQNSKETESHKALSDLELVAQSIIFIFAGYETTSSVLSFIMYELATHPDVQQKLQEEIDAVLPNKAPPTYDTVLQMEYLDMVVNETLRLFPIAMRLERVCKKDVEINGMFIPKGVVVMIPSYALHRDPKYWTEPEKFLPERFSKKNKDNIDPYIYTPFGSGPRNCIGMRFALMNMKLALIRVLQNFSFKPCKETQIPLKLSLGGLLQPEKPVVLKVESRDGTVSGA
UniProt P10635, whole entry: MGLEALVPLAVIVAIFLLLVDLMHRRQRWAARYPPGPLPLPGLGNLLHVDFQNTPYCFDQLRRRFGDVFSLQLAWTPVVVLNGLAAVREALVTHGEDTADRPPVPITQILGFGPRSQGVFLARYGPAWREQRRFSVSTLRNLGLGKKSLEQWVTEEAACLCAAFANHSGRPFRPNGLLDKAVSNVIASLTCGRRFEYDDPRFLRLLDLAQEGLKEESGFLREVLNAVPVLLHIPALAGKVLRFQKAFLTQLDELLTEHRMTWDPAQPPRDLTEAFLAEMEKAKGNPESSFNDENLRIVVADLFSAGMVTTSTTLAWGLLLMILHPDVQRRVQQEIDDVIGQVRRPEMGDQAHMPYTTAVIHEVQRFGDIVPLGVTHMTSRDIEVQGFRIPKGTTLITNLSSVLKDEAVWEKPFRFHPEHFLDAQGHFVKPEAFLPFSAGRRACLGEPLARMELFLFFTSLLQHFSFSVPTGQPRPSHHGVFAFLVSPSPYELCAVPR
UniProt P11712, whole entry: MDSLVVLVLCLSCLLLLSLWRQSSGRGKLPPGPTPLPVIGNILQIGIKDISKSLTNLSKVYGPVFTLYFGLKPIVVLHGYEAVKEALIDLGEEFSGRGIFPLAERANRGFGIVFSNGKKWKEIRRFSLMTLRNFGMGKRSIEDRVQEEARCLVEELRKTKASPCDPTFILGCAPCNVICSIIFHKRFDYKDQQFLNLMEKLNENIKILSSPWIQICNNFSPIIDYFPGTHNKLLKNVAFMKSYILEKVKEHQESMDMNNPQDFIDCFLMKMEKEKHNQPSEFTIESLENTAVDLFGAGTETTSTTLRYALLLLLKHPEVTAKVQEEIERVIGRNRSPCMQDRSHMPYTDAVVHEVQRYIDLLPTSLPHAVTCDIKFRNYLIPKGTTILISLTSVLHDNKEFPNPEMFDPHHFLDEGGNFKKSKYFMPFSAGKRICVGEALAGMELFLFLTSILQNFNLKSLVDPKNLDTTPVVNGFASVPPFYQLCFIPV

How the values were obtained:
Assay type in all cases: ADME, Microsome
[1] = target: Cytochrome P450 2C19 (Homo sapiens, UniProt P33261); test: Inhibition of CYP2C19 in human liver microsomes at 10 uM relative to control
[2] = target: Cytochrome P450 1A2 (Homo sapiens, UniProt P05177); test: Inhibition of CYP1A2 in human liver microsomes at 10 uM relative to control
[3] = Metabolic stability in human liver microsomes assessed as half life
[4] = target: Cytochrome P450 3A4 (Homo sapiens, UniProt P08684); test: Inhibition of CYP3A4 in human liver microsomes at 10 uM relative to control
[5] = target: Cytochrome P450 2D6 (Homo sapiens, UniProt P10635); test: Inhibition of CYP2D6 in human liver microsomes at 10 uM relative to control
[6] = Metabolic stability in mouse liver microsomes assessed as half life
[7] = target: Cytochrome P450 2C9 (Homo sapiens, UniProt P11712); test: Inhibition of CYP2C9 in human liver microsomes at 10 uM relative to control

Compound: COc1cc(CNCCC2CCCCC2)ccc1Oc1ccc(C(N)=O)cn1
- inhibition (INH) [1]: 40.8%
- inhibition (INH) [2]: 0%
- t1/2 [3]: > 2.42 h
- inhibition (INH) [4]: 0%
- inhibition (INH) [5]: 46.4%
- t1/2 [6]: 8.3 min
- inhibition (INH) [7]: 4.9%
